## Antibody variant affinities, Ab-14 heavy chain, assay B

Target peptide (SARS-CoV-2 spike, HR2 region): PDVDLGDISGINAS

Each scFv is VH, a (GGGGS)3 linker, VL, as in the parent Ab-14, and differs from it in the CDRs of the heavy chain only.
VH: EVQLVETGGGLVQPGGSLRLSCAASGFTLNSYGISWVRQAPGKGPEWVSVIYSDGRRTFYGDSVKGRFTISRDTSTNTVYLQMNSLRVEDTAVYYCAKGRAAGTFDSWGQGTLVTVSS
VL: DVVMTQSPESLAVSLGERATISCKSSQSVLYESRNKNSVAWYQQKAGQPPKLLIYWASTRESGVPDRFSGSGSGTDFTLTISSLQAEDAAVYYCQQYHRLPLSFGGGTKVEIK

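The parent was found by panning a naive human phage display library on the peptide. Designed CDR sequences, proposed from the first random library and measured here. Group labels follow the data file (Ctrl: baseline library sampled from a position-specific scoring matrix, with some repeated check sequences; GP: Gaussian process model; GPLM: also part of the Gaussian process libraries; HC: hill climbing; Gen: genetic algorithm; a sequence that several methods proposed may carry one label only). The scFvs were displayed on barcoded MATa yeast, the peptide on MATalpha yeast. Binding brings cells together so that they mate, and sequencing counts the barcode pairs among the diploids. A regression on co-assayed BCL2-family reference pairs converts the normalised counts of each replicate to an apparent Kd. Each pool was mated in six replicate cultures.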

Changes read parent residue, position, new residue, counted from the first residue of the VH shown. The read-out is the apparent dissociation constant on a log10 scale (nM): the lower, the stronger. "ND" means that the variant was in the library but no mating with the target was seen in that replicate; the authors take this as a sign of poor binding, and no number exists. The authors' rule: three or more of the six replicates give a measured affinity, fewer mean a poor binder.

For R56C+G103L+T104V [Ctrl], the assay gave ND, ND, ND, ND, ND, ND (controls 0 of 18).
For L29I+G61A+T104P [Ctrl], the assay gave ND, ND, ND, ND, ND, ND (controls 0 of 18).
For G61N+A101V [Ctrl], the assay gave 1.43, ND, ND, 0.96, ND, 2.50 (controls 2 of 18).
For S53A+R100D+A101N+G103S [Ctrl], the assay gave ND, ND, ND, ND, 2.44, ND (controls 1 of 18).
For K65R+A102P+T104A+D106E [Ctrl], the assay gave ND, ND, ND, ND, ND, ND (controls 0 of 18).
For T28G+G33S [Ctrl], the assay gave ND, ND, ND, ND, ND, ND (controls 0 of 18).
For Y32C+A101T+S107W [Ctrl], the assay gave ND, ND, ND, -0.09, ND, ND (controls 0 of 18).
For F27R+R100Q [Ctrl], the assay gave ND, ND, ND, ND, ND, ND (controls 0 of 18).
For I34F+F59M+G103F [Ctrl], the assay gave ND, ND, ND, ND, ND, ND (controls 0 of 18).
For A101V [Ctrl+GPLM_Gen], the assay gave 1.82, 2.98, 1.41, ND, 1.22, 2.18; 0.38, 1.24, -0.03, ND, 0.47, ND (controls 0 of 36).
For T28E+A101I+D106V+S107L [Ctrl], the assay gave ND, ND, ND, ND, ND, ND (controls 0 of 18).
For T28E+S107Y [Ctrl], the assay gave 1.90, 2.30, 1.42, 2.41, 1.88, 1.71 (controls 0 of 18).
For G61H+G99L+D106S [Ctrl], the assay gave ND, ND, ND, ND, ND, ND (controls 0 of 18).
For S31E+R100E+A102V [Ctrl], the assay gave ND, ND, ND, ND, ND, ND (controls 0 of 18).
For T58Q+K65E [Ctrl], the assay gave ND, ND, ND, ND, ND, ND (controls 0 of 18).
For S31E+G61Q+R100T+A101N+G103I [Ctrl], the assay gave ND, ND, ND, ND, ND, ND (controls 0 of 18).
For G26L+T28Q [Ctrl], the assay gave ND, ND, ND, ND, ND, ND (controls 0 of 18).
For S31D+S35T+F59M+S63N+A102G [Ctrl], the assay gave ND, ND, ND, ND, ND, ND (controls 0 of 18).
For T28W+T58I+Y60D+T104Q [Ctrl], the assay gave ND, ND, ND, ND, ND, ND (controls 0 of 18).
For T28S [Ctrl+GPLM_Gen], the assay gave 1.66, 0.89, 0.38, 0.07, 0.52, 0.87; 0.44, 0.63, 0.72, 0.55, 0.74, 0.81 (controls 1 of 36).
For F27E+A101N+D106T [Ctrl], the assay gave ND, 0.65, ND, ND, ND, ND (controls 0 of 18).
For T28Q+F59M [Ctrl], the assay gave 2.03, 2.98, 2.72, 2.28, 2.53, 2.30 (controls 0 of 18).
For S31D+G61A+A102E+S107L [Ctrl], the assay gave ND, ND, ND, ND, ND, ND (controls 1 of 18).
For R56H+G103A [Ctrl], the assay gave ND, ND, ND, ND, ND, ND (controls 0 of 18).
For G99A+S107W [Ctrl], the assay gave ND, ND, ND, ND, ND, ND (controls 0 of 18).
For T104G+S107H [Ctrl], the assay gave ND, ND, ND, ND, ND, ND (controls 0 of 18).
For T28C+S31E+S107L [Ctrl], the assay gave ND, ND, ND, ND, 0.07, ND (controls 0 of 18).
For F27M+S31E+Y60I+R100E+D106L [Ctrl], the assay gave ND, ND, ND, ND, ND, ND (controls 0 of 18).
For F59S+R100F+S107L [Ctrl], the assay gave 2.26, 1.88, 2.21, 2.06, ND, 2.57 (controls 0 of 18).
For R100E+A101Q [Ctrl+GP_HC], the assay gave 1.33, ND, ND, 0.63, 0.83, 1.23; 0.92, 1.58, 1.52, 1.02, 2.10, 1.14 (controls 2 of 36).
For A101G [Ctrl], the assay gave ND, ND, ND, ND, ND, ND (controls 0 of 18).
For S31K+R100W+A102V [Ctrl], the assay gave ND, ND, ND, ND, ND, ND (controls 0 of 18).
For S53R+G99H+R100F+A101E+D106P [Ctrl], the assay gave ND, ND, ND, ND, ND, ND (controls 0 of 18).
For D62Q+T104I [Ctrl], the assay gave ND, ND, ND, ND, ND, ND (controls 0 of 18).
For N30K+D62N+G99S+A101V+D106L [Ctrl], the assay gave ND, ND, ND, ND, ND, ND (controls 0 of 18).
For N30L+T104W+D106S [Ctrl], the assay gave ND, ND, ND, ND, ND, ND (controls 0 of 18).
For T28W+S53A [Ctrl+GPLM_Gen], the assay gave 0.95, 0.90, 0.81, 0.73, 1.56, 1.18; 1.45, 1.03, 0.86, 1.42, 1.08, 1.76 (controls 0 of 36).

The first 5 variants above that were never detected:

R56C+G103L+T104V [Ctrl]: ND, ND, ND, ND, ND, ND (controls 0 of 18).
L29I+G61A+T104P [Ctrl]: ND, ND, ND, ND, ND, ND (controls 0 of 18).
K65R+A102P+T104A+D106E [Ctrl]: ND, ND, ND, ND, ND, ND (controls 0 of 18).
T28G+G33S [Ctrl]: ND, ND, ND, ND, ND, ND (controls 0 of 18).
F27R+R100Q [Ctrl]: ND, ND, ND, ND, ND, ND (controls 0 of 18).

A sequence measured in both rounds can read differently, since the two assays cover different ranges. Three control strains display no target. For all heavy chain designs, 1% of the pairings with them gave a signal, with a median of 2.08 and one signal in twenty below 0.84, so weak values seen in few replicates may be background. Also given: how often the same scFv was detected with the empty control strains. Where one sequence has several entries in the source, the replicates are listed entry by entry, parted by semicolons.

The measurements come from Li et al. 2023 (doi:10.1038/s41467-023-39022-2) through the FLAb antibody collection.